Experimental data taken from ChEMBL document CHEMBL3785058, “Design and synthesis of novel 3-sulfonylpyrazol-4-amino pyrimidines as potent anaplastic lymphoma kinase (ALK) inhibitors” (Bioorg Med Chem Lett, 2016).

Tested on: NCI-H2228
Details: Homo sapiens

Cc1cc(Nc2ncc(Cl)c(Nc3ccccc3S(=O)(=O)C(C)C)n2)c(OC(C)C)cc1C1CCNCC1
TGI: Active

Calls of active or inactive are those of the source. No cut-off for these calls is given here.
